These results are taken from patent publication EP4840874A1, “NOVEL PEPTIDE HAVING ACTIVITIES OF INHIBITING MUSCLE LOSS AND PROMOTING MUSCLE GROWTH, AND USES THEREOF” (dated 2026).

Experiment [1] concerns C2C12 myoblasts. The experiment can be described thus: Early/mid-stage differentiation gene expression (RT-PCR). Particulars: 3 days differentiation. How it is done: To determine the effect of the peptide prepared in Preparation Example 1 on the differentiation of myoblasts into muscle cells/muscle fibers, the expression levels of gene markers related to early/mid-stage differentiation in myoblasts were evaluated through RT-PCR analysis.
C2C12 cells (mouse myoblast line) were cultured in DMEM medium containing 1% P/S and 2% BCS. When cell confluency reached approximately 70 to 80%, cells were seeded into 6-well culture plates at a density of 5 x 10^5 cells/well by 2 ml. Subsequently, when cell confluency reached 100%, the medium was replaced with differentiation medium (1% P/S, 2% horse serum), and the peptide of SEQ ID NO: 1 was added at a concentration of 5 µM or 50 µM. Afterwards, the differentiation medium and the peptide of SEQ ID NO: 1 were replaced every two days, and three days after the first replacement, the cells were harvested and RNA was extracted using Trizol (Thermo Fisher Scientific, USA). DNA complementary to the extracted RNA was obtained using TOPScript™ RT DryMIX (enzynomics, Korea), and then polymerase chain reaction (PCR) was performed on early/mid-stage differentiation marker genes using TOPsimple™ DryMIX-nTaq (enzynomics, Korea). The mRNA expression levels of the markers were then compared under each sample treatment condition by running the samples on a 1.5% agarose gel. The primer sequences of the genes used in the experiment and the primer sequence of the GAPDH gene as a control are shown in Table 2.

Experiment [2] concerns C2C12 myoblasts. The experiment can be described thus: Myotube synthesis capacity (microscopy, myotube thickness). The conditions noted are these: 5 or 50 µM, 3 days after differentiation induction; peptide concentration-dependent. How it is done:
To analyze the effect of the peptide prepared in Preparation Example 1 on myotube synthesis capacity in myoblasts, the thickness of the myotubes was compared by observing differentiated myoblasts under a microscope.
C2C12 cells (mouse myoblast line) were cultured in DMEM medium containing 1% P/S and 2% BCS. When cell confluency reached approximately 80%, cells were seeded into 6-well culture plates at a density of 5 x 10^5 cells/well with 2 ml aliquots. Subsequently, when cell confluency reached 100%, the medium was replaced with differentiation medium (1% P/S, 2% horse serum), and the peptide of SEQ ID NO: 1 was added at a concentration of 5 µM or 50 µM. Afterwards, the differentiation medium and SEQ ID NO: 1 peptide were replaced every two days, and images were taken with an optical microscope (FLEXACAM C1, Leica, Germany) 3 days after differentiation induction to compare the thickness of the myotubes.

The subject of experiment [3] is C2C12 myoblasts. The experiment can be described thus: Muscle protein synthesis-related gene expression (RT-PCR). The conditions noted are these: 5 or 50 µM, 3 days differentiation. How it is done:
To determine the effect of the peptide prepared in Preparation Example 1 on the expression of genes related to muscle protein synthesis, the expression levels of signaling gene markers related to muscle protein synthesis in myoblasts were evaluated through RT-PCR analysis.
C2C12 cells (mouse myoblast line) were cultured in DMEM medium containing 1% P/S and 2% BCS. When cell confluency reached approximately 70 to 80%, cells were seeded into 6-well culture plates at a density of 5 x 10^5 cells/well with 2 ml aliquots. Subsequently, when cell confluency reached 100%, the medium was replaced with differentiation medium (1% P/S, 2% horse serum), and the peptide of SEQ ID NO: 1 was added at a concentration of 5 µM or 50 µM. Subsequently, the differentiation medium and peptide of SEQ ID NO: 1 were replaced every two days, and cells were harvested three days after the first replacement to extract RNA using Trizol (Thermo Fisher Scientific, USA). DNA complementary to the extracted RNA was obtained using TOPScript™ RT DryMIX (enzynomics, Korea), and then polymerase chain reaction (PCR) was performed on signaling genes related to muscle protein synthesis using TOPsimple™ DryMIX-nTaq (enzynomics, Korea). The mRNA expression levels of the markers were then compared under each sample treatment condition by running the samples on a 1.5% agarose gel. The primer sequences of the genes used in the experiment and the primer sequence of the GAPDH gene as a control are shown in Table 3.

In the case of `CC(C)[C@H](NC(=O)[C@@H](NC(=O)[C@@H](N)CC(=O)O)[C@@H](C)O)C(=O)N[C@@H](CCC(=O)O)C(=O)N[C@@H](CC(N)=O)C(=O)O`, in experiment [1] (5 or 50 µM), the “mRNA expression level of Myf4” value is on record as “significantly increased in a peptide concentration-dependent manner”, the “mRNA expression level of Myf5” value is “significantly increased in a peptide concentration-dependent manner”, the “mRNA expression level of Myf6” value is given as “significantly increased in a peptide concentration-dependent manner” and the “mRNA expression level of MyoG” value is given as “significantly increased in a peptide concentration-dependent manner”. Besides, in experiment [1] (peptide concentration 50 µM), the “mRNA expression level of Myf4 increase” value is “more than 100 fold” and the “mRNA expression level of Myf6 increase” value is “more than 48 fold”. In addition, the “thickness of the myotubes” value in experiment [2] is listed as “fused with surrounding myotubes to form thicker myotubes”. For the same compound, in experiment [3], the “mRNA expression level of AKT” value is “significantly increased in a peptide concentration-dependent manner”, the “mRNA expression level of IGF-1” value is recorded as “significantly increased in a peptide concentration-dependent manner”, the “mRNA expression level of P70S6K” value was “significantly increased in a peptide concentration-dependent manner” and the “mRNA expression level of SIRT1” value is given as “significantly increased in a peptide concentration-dependent manner”. Also, the “mRNA expression level of mTOR” value in experiment [3] was “significantly increased in a peptide concentration-dependent manner”.
